The numbers were not newly measured in article PMC140124 (Biological Procedures Online, 1998), which cites them from elsewhere.

The conditions of this data set: presence of peptidase inhibitors; ref [1].

For Tyr-Gly-Gly-Phe-Leu, the “change of elimination clearance from the mucosal side” value was “decreased”.
